B1: BMP2: bone morphogenetic protein 2 (R&D systems) (protein)
chain: QAKHKQRKRLKSSCKRHPLYVDFSDVGWNDWIVAPPGYHAFYCHGECPFPLADHLNSTNHAIVQTLVNSVNSKIPKACCVPTELSAISMLYLDENEKVVLKNYQDMVVEGCGCR

Tests used:
[1] = tested on: biotinylated monoFC-muErfe; assay: FRET assay: BMPs disrupting binding of cryptate-labelled anti-ERFE antibody 15.1 to biotinylated monoFC-muErfe; set-up: species or system murine; conditions: competing antigen 250 nM to 0.39 nM, Ab 15.1 15 nM, 3 hours room temperature
Protocol: (a) Investigation of the ability of BMPs to disrupt binding of cryptate-labelled anti-ERFE antibody to biotinylated murine ERFE: FRET assay was used to determine the ability of BMPs to disrupt binding between ERFE and a neutralising anti-ERFE antibody (Ab 15.1). The assay setup comprised streptavidin XL665 (cisbio assays) at a constant concentration of 1:1000 to be 50 ng per well, biotinylated monoFC-muErfe (9 μM) i.e. a monomeric FC murine ERFE fusion, cryptate labelled anti-ERFE antibody (Ab 15.1) at 15 nM. Each reaction well contained a total volume of 20 μl comprising: 5 μl streptavidin XL665, 5 μl Biotinylated monoFC-muErfe, 5 μl cryptate labelled anti-ERFE antibody 15.1, 5 μl competing antigen as a titration from 250 nM to 0.39 nM, all antigens at each concentration were assayed in duplicate. Reactions were left for 3 hours at room temperature and then […] at 665 nm and […] was read on the Envision. […] The assay was also conducted using a non-neutralising anti-ERFE antibody as a control.

gluteal preadipocytes = assay: Western blot of phospho- and total SMAD1/5/8 in preadipocytes; assay type: cell-based, Human; conditions: gluteal cells, BMP2, 30 minutes
Protocol: (§1) (a) Primary pre-adipocyte isolation. Human primary pre-adipocytes were prepared by isolation from white adipose tissue (WAT) biopsies taken under local anesthetic (1% lignocaine) by needle aspiration at the level of the umbilicus (ASAT) and from the upper-, outer-quadrant of the gluteal region (GSAT). Primary preadipocytes were isolated from ASAT and GSAT biopsies by mechanically mincing using scissors, washed twice with Hanks' buffered salt solution to remove contaminating blood, and then enzymatically digested in 1 mg/ml collagenase (Roche Applied Science) in Hanks' buffered salt solution in a shaking water bath (90 rpm) at 37° C. for 45 min. The digested tissue was centrifuged at 1000 rpm for 5 min at 4° C. The pellet containing stromal-vascular cells was resuspended in Dulbecco's modified Eagle's medium/F12 Ham's nutrient mixture (v/v, 1:1) containing 17.5 mM glucose and supplemented with 10% foetal calf serum, 0.25 ng/ml fibroblast growth factor, 2 mM glutamine, 100 units/ml penicillin and 100 μg/ml streptomycin. Cell stocks of APAD and GPAD cells were prepared and stored in liquid nitrogen for future studies. […]

abdominal preadipocytes = assay: as above; assay type: cell-based, Human; conditions: abdominal cells, BMP2, 30 minutes
Protocol: as §1

[2] = tested on: HAMP-nanoluciferase fusion in HepG2 hepatoma cells; assay: hepcidin transcriptional fusion reporter assay (nano-luc / nano-luciferase assay); assay type: cell-based; conditions: NanoLuc cells, serially diluted BMP, 24 h
Protocol: The was measured in-vitro using as follows: A hepcidin transcriptional fusion reporter assay (nano-luc or nano-luciferase assay) was developed to assess the effect of BMPs on hepcidin production in-vitro. A nanoluciferase reporter was inserted at the end of the coding sequence of the endogenous HAMP gene, in HepG2 hepatoma cells, creating a HAMP-nanoluciferase fusion. CRISPR-Cas9 was used to edit the cells with this knock-in reporter construct. A bovine Growth Hormone poly A was included after the nanoLuc to ensure proper mRNA processing. A Puromycin-TK expression cassette was also included 3′ of the nanoluc reporter to enrich for properly targeted clones. Clones that were homozygous for the HAMP-NanoLuc fusion were selected and tested for their response to BMPs and LDN(4-[6-[4-(1-Piperazinyl)phenyl]pyrazolo[1,5-a]pyrimidin-3-yl]quinoline dihydrochloride), a potent ALK2/3 BMP inhibitor, a schematic of the nano-luc construct is shown in FIG. 1B. The effect of representative BMPs (BMP, 2, 6, 9) on the Hamp-nanoLuc signal was assessed. Approximately 20,000 cells (cells split with trypsin/EDTA) were suspended in 200 uL of complete media (DMEM+10% serum+Na pyruvate) and were distributed into each well of 96-well plates and incubated for 24 hours at 37 C. […] Plates were read on Envision with Lum700 program following the manufacturer's instructions.

Molecule | competition with cryptate labelled anti-ERFE antibody for binding to biotinylated monoFC-muErfe [1] | SMAD1/5/8 phosphorylation (gluteal preadipocytes) | SMAD1/5/8 phosphorylation (abdominal preadipocytes) | hepcidin expression (hepcidin-nanoluciferase fusion expression) [2]
BMP 2/6 heterodimer: heterodimer of BMP2 and BMP6 | measurable competition | – | – | –
B1 | – | increase | increase | dose-dependent increase

From patent US20210196823A1, “Methods of Treating Metabolic Disease” (Pfizer Inc., priority 2018, published 2021)
